Test results as given in ChEMBL document CHEMBL1146668, “1,2-Benzothiazine 1,1-dioxide alpha-ketoamide analogues as potent calpain I inhibitors” (Bioorg Med Chem Lett, 2004).

Legend:
[1] = molecular target: T1, Calpain-1 catalytic subunit (Homo sapiens, UniProt P07384); assay: In vitro inhibitory activity against recombinant human calpain 1
T1 sequence (P07384 whole entry): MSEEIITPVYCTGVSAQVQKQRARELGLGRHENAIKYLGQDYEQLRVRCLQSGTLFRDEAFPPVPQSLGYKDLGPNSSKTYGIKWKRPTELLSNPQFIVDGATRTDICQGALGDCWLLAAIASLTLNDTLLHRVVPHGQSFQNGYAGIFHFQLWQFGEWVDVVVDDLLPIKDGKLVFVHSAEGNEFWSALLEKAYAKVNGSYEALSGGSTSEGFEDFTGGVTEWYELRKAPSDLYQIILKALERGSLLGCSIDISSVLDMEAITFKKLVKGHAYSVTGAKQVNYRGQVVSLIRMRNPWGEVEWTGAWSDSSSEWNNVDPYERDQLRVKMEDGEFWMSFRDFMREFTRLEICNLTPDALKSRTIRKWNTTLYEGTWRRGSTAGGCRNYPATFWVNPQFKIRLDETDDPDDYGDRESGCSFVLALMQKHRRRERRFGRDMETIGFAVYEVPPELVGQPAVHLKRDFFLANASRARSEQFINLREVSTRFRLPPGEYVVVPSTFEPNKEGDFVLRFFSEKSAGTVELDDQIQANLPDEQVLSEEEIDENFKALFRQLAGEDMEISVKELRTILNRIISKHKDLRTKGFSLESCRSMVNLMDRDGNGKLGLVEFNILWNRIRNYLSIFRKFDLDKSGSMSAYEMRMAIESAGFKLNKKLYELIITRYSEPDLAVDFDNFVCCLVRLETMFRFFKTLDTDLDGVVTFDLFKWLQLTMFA

[2] = molecular target: T1, Calpain-1 catalytic subunit; assay: Inhibitory activity tested against human calpain 1 in Molt-4 cells (intact human T-cell leukemia cell line); type: cell-based

IC50 [1]	IC50 [2]	SMILES
81 nM		CCN1C(C(=O)N[C@@H](Cc2ccccc2)C(=O)C(=O)NCc2ccccc2)Cc2cc3c(cc2S1(=O)=O)OCCO3 (stereo partly drawn)
	2.1 nM	CCCCNC(=O)C(=O)[C@H](Cc1ccccc1)NC(=O)C1Cc2cc3c(cc2S(=O)(=O)N1CC)OCCO3 (stereo in doubt)
286 nM		CCN1C(C(=O)N[C@@H](Cc2ccccc2)C(=O)C(=O)NCC2CC2)Cc2cc3c(cc2S1(=O)=O)OCCO3 (stereo partly drawn)
